According to PubChem BioAssay AID602244 (Sanford-Burnham Center for Chemical Genomics, 2012):
This is a selection; strong and weak results do not stand in their true shares. Activity calls are given as the source filed them. No stated cut-off is given here; in the data, active means inhibition above about 34% (passing the limit was not always enough); inactive means the rest.

Protein sequences, listed by entry. Tags and fused reporters are not part of them.
UniProt O00574, whole entry: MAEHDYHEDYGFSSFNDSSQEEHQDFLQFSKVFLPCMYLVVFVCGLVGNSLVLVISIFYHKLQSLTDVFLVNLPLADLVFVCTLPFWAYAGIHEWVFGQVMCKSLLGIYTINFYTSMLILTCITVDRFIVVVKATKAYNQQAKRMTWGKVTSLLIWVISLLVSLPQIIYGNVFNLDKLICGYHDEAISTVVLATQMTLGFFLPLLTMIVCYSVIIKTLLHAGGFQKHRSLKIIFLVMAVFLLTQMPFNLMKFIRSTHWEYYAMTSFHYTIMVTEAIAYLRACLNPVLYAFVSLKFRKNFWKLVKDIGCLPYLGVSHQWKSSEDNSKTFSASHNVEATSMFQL

biological target: C-X-C chemokine receptor type 6 (Homo sapiens) (UniProt O00574); assay: blockade of CXCL16-induced CXCR6 beta-arrestin recruitment – cell-based, luminescence, CHO-K1 PathHunter, 1536-well, primary screen (AID 602244); settings: at 20 µM, active compounds read high;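 further: antagonist mode with CXCL16 agonist at 10 nM final; 0% = 10 nM CXCL16 with DMSO and 100% = unstimulated wells without agonist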

| Compound | inhibition |
| --- | --- |
| CCC(=O)N(c1ccccc1)C1(COC)CCN(CCn2nnn(CC)c2=O)CC1 | inactive: -2.7% |
| CCC(=O)N(c1ccccc1)C1(COC)CCN(CCc2cccs2)CC1 | inactive: 1.6% |
